Results: patent US20190022152A1, “MICROBIOME RESPONSE TO AGENTS” (Yeda Research and Development Co., Ltd., priority 2014, published 2019)
Where two headings read alike, the source gives them in different places.

What was measured:
fecal microbiota = details: fecal samples, 11 weeks consumption
Method: (§1) Illumina sequence reads were mapped to the human microbiome reference genome database of the Human Microbiome Project [www(dot)hmpdacc(dot)org/HMREFG/^32], and to a gut microbial gene catalogue^33 using GEM mapper^58 with the following parameters: • -m 3 -s 0 -q offset-33 -gem-quality-threshold 26
(§2) Microbial species abundance was measured as the fraction of reads that mapped to a single species in the database. An EM algorithm adapted from Pathoscope^59 was employed to determine the correct assignment of reads that mapped to more than one species. We considered only species for which at least 10% of the genome was covered (each coverage bin was 10,000-bp long) in at least one of the growth conditions (saccharin, water, or glucose). Reads mapped to the gut microbial gene catalogue were assigned a KEGG^34,35 ID according to the mapping available with the catalogue. Genes were subsequently mapped to KEGG pathways, and only pathways whose gene coverage was above 0.2 were included.

[1] = test system: fecal microbiota KEGG pathways; experiment: Shotgun metagenomic sequencing: KEGG pathway abundance (Table 2); design: species or system mice; details: In vivo (week 11/week 0)
Method: as §1, §2

## OC[C@H]1OC(O)[C@H](O)[C@@H](O)[C@@H]1O (some centres unmarked) [Glucose]
Fecal microbiota; Symbol BACT_22, Number 639
  Fold change (week 11/week 0) in relative species abundance: 0.99
Fecal microbiota; Symbol BACT_38, Number 780
  Fold change (week 11/week 0) in relative species abundance: 1.03
Fecal microbiota; Symbol BACT_142, Number 843
  Fold change (week 11/week 0) in relative species abundance: 1.01
Fecal microbiota; Symbol BACT_172, Number 768
  Fold change (week 11/week 0) in relative species abundance: 1.44
Fecal microbiota; Symbol BACT_194, Number 846
  Fold change (week 11/week 0) in relative species abundance: 0.95
Fecal microbiota; Symbol BACT_196, Number 395
  Fold change (week 11/week 0) in relative species abundance: 1.04
Fecal microbiota; Symbol BACT_371, Number 960
  Fold change (week 11/week 0) in relative species abundance: 1.05
Fecal microbiota; Symbol BACT_374, Number 805
  Fold change (week 11/week 0) in relative species abundance: 1.34
Fecal microbiota; Symbol BACT_392, Number 915
  Fold change (week 11/week 0) in relative species abundance: 1.00
Fecal microbiota; Symbol BACT_393, Number 932
  Fold change (week 11/week 0) in relative species abundance: 1.30
Fecal microbiota; Symbol BACT_397, Number 914
  Fold change (week 11/week 0) in relative species abundance: 1.35
Fecal microbiota; Symbol BACT_409, Number 845
  Fold change (week 11/week 0) in relative species abundance: 1.44
Fecal microbiota; Symbol BACT_418, Number 749
  Fold change (week 11/week 0) in relative species abundance: 1.35
Fecal microbiota; Symbol BACT_586, Number 849
  Fold change (week 11/week 0) in relative species abundance: 1.33
Fecal microbiota; Symbol BACT_632, Number 871
  Fold change (week 11/week 0) in relative species abundance: 1.02
Fecal microbiota; Symbol BACT_686, Number 1007
  Fold change (week 11/week 0) in relative species abundance: 1.06
Fecal microbiota; Symbol BACT_769, Number 610
  Fold change (week 11/week 0) in relative species abundance: 0.96
Fecal microbiota; Symbol BACT_931, Number 1088
  Fold change (week 11/week 0) in relative species abundance: 0.98
Fecal microbiota; Symbol BACT_1025, Number 751
  Fold change (week 11/week 0) in relative species abundance: 0.98
Fecal microbiota; Symbol BACT_1043, Number 948
  Fold change (week 11/week 0) in relative species abundance: 1.27
Fecal microbiota; Symbol BACT_1314, Number 1399
  Fold change (week 11/week 0) in relative species abundance: 1.41
Fecal microbiota; Symbol BACT_1315, Number 1395
  Fold change (week 11/week 0) in relative species abundance: 1.09
Fecal microbiota; Symbol BACT_1496, Number 1321
  Fold change (week 11/week 0) in relative species abundance: 1.32
Fecal microbiota; Symbol BACT_1596, Number 1502
  Fold change (week 11/week 0) in relative species abundance: 1.39
Fecal microbiota; Symbol BACT_3056, Number 5836
  Fold change (week 11/week 0) in relative species abundance: 1.00
Fecal microbiota; Symbol BACT_3092, Number 5793
  Fold change (week 11/week 0) in relative species abundance: 1.26
Fecal microbiota; Symbol EUKY_22, Number 1758
  Fold change (week 11/week 0) in relative species abundance: 1.38
Fecal microbiota; Symbol EUKY_141, Number 1875
  Fold change (week 11/week 0) in relative species abundance: 1.36
[1]
  Log_fold change: 2-Oxocarboxylic acid metabolism: −0.04
  Log_fold change: ABC transporters: 0.25
  Log_fold change: Alanine, aspartate and glutamate metabolism: −0.04
  Log_fold change: Amino sugar and nucleotide sugar metabolism: 0.00
  Log_fold change: Aminoacyl-tRNA biosynthesis: 0.00
  Log_fold change: Aminobenzoate degradation: 0.00
  Log_fold change: Arginine and proline metabolism: −0.01
  Log_fold change: Ascorbate and aldarate metabolism: −0.13
  Log_fold change: Atrazine degradation: −0.03
  Log_fold change: Bacterial chemotaxis: 0.06
  Log_fold change: Bacterial secretion system: 0.03
  Log_fold change: Base excision repair: 0.09
  Log_fold change: Benzoate degradation: 0.02
  Log_fold change: Biosynthesis of amino acids: −0.01
  Log_fold change: Biosynthesis of siderophore group nonribosomal peptides: −0.19
  Log_fold change: Biosynthesis of unsaturated fatty acids: 0.12
  Log_fold change: Biotin metabolism: −0.08
  Log_fold change: Bisphenol degradation: 0.03
  Log_fold change: Butanoate metabolism: 0.01
  Log_fold change: CS-Branched dibasic acid metabolism: 0.03
  Log_fold change: Caprolactam degradation: 0.03
  Log_fold change: Carbon fixation in photosynthetic organisms: −0.03
  Log_fold change: Carbon fixation pathways in prokaryotes: −0.04
  Log_fold change: Carbon metabolism: 0.02
  Log_fold change: Cell cycle-Caulobacter: 0.05
  Log_fold change: Chloroalkane and chloroalkene degradation: 0.10
  Log_fold change: Citrate cycle (TCA cycle): −0.07
  Log_fold change: Cyanoamino acid metabolism: −0.07
  Log_fold change: Cysteine and methionine metabolism: 0.01
  Log_fold change: D-Alanine metabolism: 0.25
  Log_fold change: D-Arginine and D-ornithine metabolism: 0.28
  Log_fold change: D-Glutamine and D-glutamate metabolism: 0.01
  Log_fold change: DDT degradation: 0.34
  Log_fold change: DNA replication: 0.02
  Log_fold change: Dioxin degradation: 0.05
  Log_fold change: Drug metabolism-other enzymes: 0.07
  Log_fold change: Ether lipid metabolism: −0.13
  Log_fold change: Fatty acid biosynthesis: −0.07
  Log_fold change: Fatty acid degradation: 0.00
  Log_fold change: Fatty acid metabolism: −0.08
  Log_fold change: Flagellar assembly: 0.06
  Log_fold change: Folate biosynthesis: −0.08
  Log_fold change: Fructose and mannose metabolism: 0.03
  Log_fold change: Galactose metabolism: 0.06
  Log_fold change: Geraniol degradation: −0.14
  Log_fold change: Glutathione metabolism: 0.40
  Log_fold change: Glycerolipid metabolism: 0.19
  Log_fold change: Glycerophospholipid metabolism: 0.20
  Log_fold change: Glycine, serine and threonine metabolism: 0.03
  Log_fold change: Glycolysis/Gluconeogenesis: 0.10
  Log_fold change: Glycosaminoglycan degradation: −0.01
  Log_fold change: Glycosphingolipid biosynthesis-globoseries: 0.03
  Log_fold change: Glyoxylate and dicarboxylate metabolism: 0.03
  Log_fold change: Histidine metabolism: −0.08
  Log_fold change: Homologous recombination: −0.03
  Log_fold change: Inositol phosphate metabolism: −0.06
  Log_fold change: Limonene and pinene degradation: −0.02
  Log_fold change: Lipoicacid metabolism: 0.09
  Log_fold change: Lipopolysaccharide biosynthesis: −0.09
  Log_fold change: Lysine biosynthesis: 0.02
  Log_fold change: Lysine degradation: 0.06
  Log_fold change: Methane metabolism: 0.05
  Log_fold change: Mismatch repair: 0.03
  Log_fold change: Naphthalene degradation: 0.00
  Log_fold change: Nicotinate and nicotinamide metabolism: 0.00
  Log_fold change: Nitrogen metabolism: −0.04
  Log_fold change: Nitrotoluene degradation: 0.21
  Log_fold change: Novobiocin biosynthesis: 0.04
  Log_fold change: Nucleotide excision repair: 0.00
  Log_fold change: One carbon pool by folate: −0.02
  Log_fold change: Other glycan degradation: −0.04
  Log_fold change: Oxidative phosphorylation: 0.00
  Log_fold change: Pantothenate and CoA biosynthesis: 0.00
  Log_fold change: Penicillin and cephalosporin biosynthesis: 0.05
  Log_fold change: Pentose and glucuronate interconversions: −0.05
  Log_fold change: Pentose phosphate pathway: 0.12
  Log_fold change: Peptidoglycan biosynthesis: 0.05
  Log_fold change: Phenylalanine metabolism: 0.04
  Log_fold change: Phenylalanine, tyrosine and tryptophan biosynthesis: −0.05
  Log_fold change: Phosphonate and phosphinate metabolism: 0.09
  Log_fold change: Phosphotransferase system (PTS): 0.60
  Log_fold change: Porphyrin and chlorophyll metabolism: 0.01
  Log_fold change: Propanoate metabolism: 0.01
  Log_fold change: Protein export: −0.02
  Log_fold change: Proximal tubule bicarbonate reclamation: 0.05
  Log_fold change: Purine metabolism: 0.02
  Log_fold change: Pyrimidine metabolism: 0.01
  Log_fold change: Pyruvate metabolism: 0.06
  Log_fold change: RNA degradation: −0.01
  Log_fold change: Riboflavin metabolism: −0.04
  Log_fold change: Ribosome: −0.01
  Log_fold change: Selenocompound metabolism: 0.09
  Log_fold change: Sphingolipid metabolism: −0.03
  Log_fold change: Starch and sucrose metabolism: 0.00
  Log_fold change: Streptomycin biosynthesis: −0.04
  Log_fold change: Styrene degradation: 0.31
  Log_fold change: Sulfur metabolism: 0.12
  Log_fold change: Sulfur relay system: 0.22
  Log_fold change: Synthesis and degradation of ketone bodies: 0.42
  Log_fold change: Taurine and hypotaurine metabolism: −0.02
  Log_fold change: Terpenoid backbone biosynthesis: 0.03
  Log_fold change: Tetracycline biosynthesis: 0.36
  Log_fold change: Thiamine metabolism: 0.04
  Log_fold change: Tropane, piperidine and pyridine alkaloid biosynthesis: 0.06
  Log_fold change: Tryptophan metabolism: 0.13
  Log_fold change: Two−component system: 0.02
  Log_fold change: Tyrosine metabolism: 0.02
  Log_fold change: Ubiquinone and other terpenoid-quinone biosynthesis: 0.09
  Log_fold change: Valine, leucine and isoleucine biosynthesis: −0.05
  Log_fold change: Valine, leucine and isoleucine degradation: −0.09
  Log_fold change: Vibriocholerae pathogenic cycle: −0.05
  Log_fold change: Vitamin B6 metabolism: −0.07
  Log_fold change: Xylene degradation: 0.03
  Log_fold change: beta-Alanine metabolism: −0.02
  Log_fold change: beta-Lactam resistance: −0.01
